Molecular target: human carbonic anhydrase II (HCAII)-pea Rubisco LSMT conjugate (glutaraldehyde cross-linked) (UniProt Q43088)

des(methyl) spinach Rubisco (ribulose-1,5-bisphosphate carboxylase-oxygenase holoenzyme)
Km (CO2) of Rubisco carboxylation: decrease in the Km (CO2) from 13.4 µM to 3.44 µM

— patent publication US20090070901
